This note sets out measurements from patent publication US6869783B1, “Method for producing chiral carboxylic acids from nitriles with the assistance of a nitrilase or microoganisms which contain a gene for the nitrilase” (BASF Aktiengesellschaft, priority 1998, dated 2005).

In this assay the test system is nitrilase from Alcaligenes faecalis 1650 (whole cells). The experiment in a line: Determination of the enzymatic selectivity for mandelonitrile with Alcaligenes faecalis 1650 cells. The following applies: 8.3 mM mandelonitrile, pH 6.8, 30° C, at 50% conversion.

Turning to `N#CC(O)c1ccccc1` (centres unmarked), the “optical purity of the R-(-)-mandelic acid formed (eeR-MA)” value worked out at 98% and the selectivity of the enzyme (=E) was determined as 499.
